The results in this text go back to patent US9108950B2, “1-pyrazolyl-3-(4-((2-anilinopyrimidin-4-yl)oxy)napththalen-1-yl) ureas as p38 MAP kinase inhibitors” (Respivert Ltd., priority 2011, dated 2015).

The chains behind the UniProt entries cited, without tags or fusion partners. Where a name states a change or a piece, a line headed by the entry shows the natural chain unless it says otherwise.
UniProt P08631: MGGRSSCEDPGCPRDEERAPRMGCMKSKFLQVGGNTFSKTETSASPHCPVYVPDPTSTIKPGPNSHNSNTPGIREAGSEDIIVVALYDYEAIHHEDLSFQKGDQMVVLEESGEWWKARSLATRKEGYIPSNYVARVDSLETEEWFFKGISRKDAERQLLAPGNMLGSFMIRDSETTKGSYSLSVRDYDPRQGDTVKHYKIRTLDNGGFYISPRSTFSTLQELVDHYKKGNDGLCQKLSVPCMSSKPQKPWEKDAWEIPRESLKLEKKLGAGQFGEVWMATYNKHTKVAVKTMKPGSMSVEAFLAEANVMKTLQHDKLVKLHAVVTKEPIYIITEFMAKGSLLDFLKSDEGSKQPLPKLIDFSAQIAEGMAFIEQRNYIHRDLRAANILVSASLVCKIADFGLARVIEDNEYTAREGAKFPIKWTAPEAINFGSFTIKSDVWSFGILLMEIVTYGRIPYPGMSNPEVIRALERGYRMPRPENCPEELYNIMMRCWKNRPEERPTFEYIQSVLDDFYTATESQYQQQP

Broadly, the Kd is the concentration at which binding is half-saturated.

One experiment deals with Syk (Homo sapiens (Human), UniProt P43405). Description: Kinase competition binding (DiscoverX). On the procedure: (§1) These assays were conducted by DiscoverX (formerly Ambit; San Diego, Calif.).
In the next experiment the target is HCK (Homo sapiens (Human), UniProt P08631). Kind of experiment: Kinase competition binding (DiscoverX). The protocol:
as §1

Take `COCC(=O)Nc1cc(Oc2ccc(NC(=O)Nc3cc(C(C)(C)C)nn3-c3ccc(C)cc3)c3ccccc23)ccn1` [Reference Compound, N-(4-(4-(3-(3-tert-butyl-1-p-tolyl-1H-pyrazol-5-yl)ureido)naphthalen-1-yloxy)pyridin-2-yl)-2-methoxyacetamide]: the Kd amounted to 9 nM at Syk and 5 nM at HCK.
